Data reported in PubChem BioAssay AID1792 (The Scripps Research Institute Molecular Screening Center, 2009).
The entries are a selection whose mix differs from that of the whole data set. The source made the active and inactive calls. Rule as the data show it: active = inhibition above about 75%; inactive = the rest.

Amino acid sequences for entries named in this document (tags omitted).
UniProt Q9Y5S8, whole entry: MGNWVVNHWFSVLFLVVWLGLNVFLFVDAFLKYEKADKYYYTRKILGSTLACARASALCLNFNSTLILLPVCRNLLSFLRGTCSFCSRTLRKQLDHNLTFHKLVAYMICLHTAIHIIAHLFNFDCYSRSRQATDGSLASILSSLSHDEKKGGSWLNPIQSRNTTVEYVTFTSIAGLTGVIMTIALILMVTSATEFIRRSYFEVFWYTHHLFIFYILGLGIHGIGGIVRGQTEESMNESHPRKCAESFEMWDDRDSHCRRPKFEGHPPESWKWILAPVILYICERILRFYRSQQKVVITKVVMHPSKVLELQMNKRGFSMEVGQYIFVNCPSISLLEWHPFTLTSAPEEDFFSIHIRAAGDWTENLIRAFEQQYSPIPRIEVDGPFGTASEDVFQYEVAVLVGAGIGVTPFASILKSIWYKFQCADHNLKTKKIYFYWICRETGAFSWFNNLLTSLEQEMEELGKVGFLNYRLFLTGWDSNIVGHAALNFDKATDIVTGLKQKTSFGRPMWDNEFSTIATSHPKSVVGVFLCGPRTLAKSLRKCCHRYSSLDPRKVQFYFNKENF

Each molecule was assayed against NADPH oxidase 1 (Homo sapiens) (UniProt Q9Y5S8) (assay: blocks human NADPH oxidase 1 activity (AID 1792)). Settings: HT29 cells, luminol chemiluminescence ROS; at 6.7 µM; stronger effect = higher value.

Row | Structure (SMILES) | inhibition
1 | Cc1ccccc1NC1CC(C)(C)NC(C)(C)C1 | inactive: -9.6%
